Test results reported in patent US20250130225A1, “SUBSTRATES FOR IMAGING GLUCOCEREBROSIDASE ACTIVITY” (SIMON FRASER UNIVERSITY, priority 2021, published 2025).

Biological target: T1, GCase (Homo sapiens, UniProt P04062)
T1 construct: High content imaging of SK-N-SH cells incubated for 2 h; endogenous in cells; host or cells: SK-N-SH
T1 sequence (P04062 40-536): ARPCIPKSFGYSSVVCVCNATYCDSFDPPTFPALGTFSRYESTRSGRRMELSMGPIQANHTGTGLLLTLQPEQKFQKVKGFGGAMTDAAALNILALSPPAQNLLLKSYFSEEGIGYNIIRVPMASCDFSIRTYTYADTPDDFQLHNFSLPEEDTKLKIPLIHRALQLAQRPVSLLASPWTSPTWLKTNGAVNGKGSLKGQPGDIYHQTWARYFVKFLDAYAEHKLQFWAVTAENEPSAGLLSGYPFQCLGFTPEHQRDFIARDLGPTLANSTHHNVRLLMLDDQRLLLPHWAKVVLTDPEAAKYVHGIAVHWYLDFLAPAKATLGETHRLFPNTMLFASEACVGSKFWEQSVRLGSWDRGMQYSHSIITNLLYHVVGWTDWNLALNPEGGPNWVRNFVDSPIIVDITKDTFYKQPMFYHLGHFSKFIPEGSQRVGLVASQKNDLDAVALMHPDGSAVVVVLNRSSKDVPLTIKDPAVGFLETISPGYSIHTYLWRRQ
Assay: IC50 of GCase inhibitor in fixed SK-N-SH cells read with substrate 4
Format: cell-based
Conditions: 10 μM substrate 4, fixed SK-N-SH cells; compared with live cells

Compound: O[C@H]1[C@H](O)CNC[C@@H]1C(F)F [AT3375, (3R,4R,5S)-5-(difluoromethyl)piperidine-3,4-diol]
- IC50 value in fixed cells: in good agreement with the value measured using substrate 4 in live SK-N-SH cells
